Literature values as cited in patent US20130029884A1, “BIOCIDE FORMULATIONS” (ENVIROSYSTEMS, INC., priority 2011, published 2013).

Conditions: at 20% concentrations; cited from earlier work

For “tetrakis hydroxylmethyl phosphonium sulfate [THPS]”, the toxic category is listed as 1.
